Experimental data as given in patent US9198906B2, “Ketoconazole enantiomer in humans” (Cortendo AB (publ), priority 2006, dated 2015).

Assay: Atorvastatin drug interaction study (3-way cross-over)
Settings: 80 mg atorvastatin + 400 mg; relative to the atorvastatin-only control

Substance: 2S,4R ketoconazole [DIO-902]
- AUC of total active HMG CoA reductase inhibitor in plasma: increasing
- Cmax of total active HMG CoA reductase inhibitor in plasma: reduced
